Data taken from ChEMBL document CHEMBL2321799, “Amino acid conjugates of lithocholic acid as antagonists of the EphA2 receptor” (J Med Chem, 2013).
pIC50: −log10 of the molar value.

Chains of the proteins cited; added tags and fusions are not shown.
UniProt P29317, whole entry: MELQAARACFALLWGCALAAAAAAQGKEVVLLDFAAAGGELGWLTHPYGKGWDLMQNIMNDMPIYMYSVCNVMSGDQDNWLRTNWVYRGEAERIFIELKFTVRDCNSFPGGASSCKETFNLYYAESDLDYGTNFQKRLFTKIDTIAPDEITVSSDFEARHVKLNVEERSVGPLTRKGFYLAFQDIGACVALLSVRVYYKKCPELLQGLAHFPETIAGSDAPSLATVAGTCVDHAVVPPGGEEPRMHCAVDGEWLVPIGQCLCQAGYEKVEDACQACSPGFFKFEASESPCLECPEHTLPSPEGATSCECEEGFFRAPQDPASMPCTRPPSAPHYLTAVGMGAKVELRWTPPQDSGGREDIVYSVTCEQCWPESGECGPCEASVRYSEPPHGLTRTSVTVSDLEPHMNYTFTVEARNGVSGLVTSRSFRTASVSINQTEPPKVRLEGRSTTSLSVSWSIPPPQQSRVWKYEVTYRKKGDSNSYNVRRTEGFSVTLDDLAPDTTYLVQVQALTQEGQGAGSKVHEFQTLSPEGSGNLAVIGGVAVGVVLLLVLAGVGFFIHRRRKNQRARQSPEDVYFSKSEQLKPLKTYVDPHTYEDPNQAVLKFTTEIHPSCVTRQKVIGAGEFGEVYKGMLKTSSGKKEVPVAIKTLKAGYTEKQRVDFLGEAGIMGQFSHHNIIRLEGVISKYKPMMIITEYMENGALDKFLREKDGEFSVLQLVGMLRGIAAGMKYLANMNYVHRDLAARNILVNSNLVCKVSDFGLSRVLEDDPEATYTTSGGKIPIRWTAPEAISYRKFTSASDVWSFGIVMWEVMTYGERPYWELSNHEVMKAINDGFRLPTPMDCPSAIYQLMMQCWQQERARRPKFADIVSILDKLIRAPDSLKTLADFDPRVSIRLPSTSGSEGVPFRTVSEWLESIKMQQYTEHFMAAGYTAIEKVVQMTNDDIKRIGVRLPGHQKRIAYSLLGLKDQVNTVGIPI

Experiments:
Ephrin type-A receptor 2 [1] = target: T1, Ephrin type-A receptor 2 (Homo sapiens, UniProt P29317); assay: Inhibition of ephrin-A1-Fc binding to EphA2-Fc receptor (unknown origin) after 1 hr by ELISA
Ephrin type-A receptor 2 [2] = target: T1, Ephrin type-A receptor 2; assay: Antagonist activity at EphA2 in human PC3 cells assessed as inhibition of ephrin-A1-Fc-stimulated EphA2 phosphorylation pretreated for 20 mins by sandwich ELISA; type: cell-based, PC-3

C[C@H](CCC(=O)O)[C@H]1CC[C@H]2[C@@H]3CC[C@@H]4C[C@H](O)CC[C@]4(C)[C@H]3CC[C@]12C [LITHOCHOLIC ACID]
pIC50 (Ephrin type-A receptor 2 [1]): 4.24 | pIC50 (Ephrin type-A receptor 2 [2]): 4.30
